Molecular target: Human immunodeficiency virus type 1 protease (Human immunodeficiency virus 1, UniProt Q72874)
Assay: Compound was assayed for inhibition against HIV protease activity

Question: Which Ki does the source give for `CC(C)CN(C[C@@H](O)[C@H](Cc1ccccc1)NC(=O)O[C@H]1CCOC1)S(=O)(=O)c1ccc(N)cc1` [AMPRENAVIR] here?
Answer: 0.6 nM

Reference: ChEMBL document CHEMBL1130721, “Design and synthesis of novel conformationally restricted HIV protease inhibitors” (Bioorg Med Chem Lett, 1998)
